One molecule from patent US20240166755A1, “CHIMERIC ANTIGEN RECEPTORS TARGETING CANCER” (University of Southern California, priority 2016, published 2024) can be followed below.

For one test, the system named is HEL cells. The experiment in a line: ELISA of TNFα in supernatant of CAR-T cells co-cultured with HEL cells. Format: cell-based, human. The note with it: co-culture about 96 hours, versus uninfected T cells. Background: In an ELISA, binding on a coated surface is turned into a signal by an enzyme label.
In test [1] the target is T1, extracellular domain (ECD) of human MPL (Homo sapiens, UniProt P40238).
T1 construct: made in house; host or cells: 293FT cells, conditioned medium used unpurified
The experiment in a line: NLuc assay to detect CAR: binding of MPL-ECD-GGSG-NLuc-AcV5 supernatant to CAR-expressing cells.

Test [2] deals with extracellular domain (ECD) of human CD19 (Homo sapiens, UniProt P15391). The experiment in a line: NLuc assay to detect CAR: binding of FLAG-CD19-ECD-GGSG-NLuc-AcV5 supernatant to CAR-expressing cells. The following applies: transiently transfected 293FT cells. The source says:
A frequent problem in the field of chimeric antigen receptors is lack of a sensitive and specific assay that can detect cells that express chimeric antigen receptors. To detect the expression of CAR targeting CD19 and MPL, we fused the extracellular domains (ECD) of human CD19 and human MPL, including their signal peptides, in frame with nucleotide sequence encoding a Gly-Gly-Ser-Gly linker, NLuc (without a secretory signal) and an AcV5 epitope tag. In the case of CD19 construct, a FLAG tag was inserted between the signal peptide and the beginning of the extracellular domain. The whole cassette was cloned downstream of the human EF1α promoter into the lentiviral vector pLenti-EF1 to make constructs pLenti-EF1-FLAG-CD19-ECD-GGSG-NLuc-AcV5 and pLenti-EF1-MPL-ECD-GGSG-NLuc-AcV5, respectively. The nucleic acid sequences of the insert fragments are provided in SEQ ID NO: 926 and SEQ ID NO: 925, respectively. The protein sequences of the insert fragments are provided in SEQ ID NO: 2671 and SEQ ID NO: 2670, respectively. The constructs were transfected into 293FT cells by calcium phosphate co-precipitation method. Approximately 20 h post-transfection, the cell culture media was replaced with fresh medium. The conditioned media containing the secreted FLAG-CD19-ECD-GGSG-NLuc-AcV5 (also referred to as CD19-GGSG-NLuc-AcV5) and MPL-ECD-GGSG-NLuc-AcV5 (also referred to as MPL-GGSG-NLuc-AcV5) proteins was collected 48-72 h later.
Next day morning, approximately 18 hours post-transfection, cells were collected by pipetting up and down in 1.5 ml tubes. The tubes were spun down at 1500 RPM for 5 minutes. Then the cells were washed once with wash buffer (1% FBS in PBS), followed by incubation with 1001 of indicated secretory forms of GGS NLuc supernatants. The cells were incubated at 4° C. for 1 hour.
After the incubation, cells were washed 5 times with wash buffer (1 ml each wash). Finally the pellet was resuspended in 200 μl wash buffer. Resuspended cells were placed in a 384 well plate in triplicate (25 μl each). Luciferase activity was measured using a BioTek synergy H4 plate reader after addition of NLuc assay buffer (Promega) containing native coelenterazine (25 μl each well) directly to each well (one at a time).
Jurkat-NFAT-Luc cells were stably transduced with the different CD19 targeted CAR constructs and selected in puromycin. Cells were incubated with FLAG-CD19-ECD-GGSG-NLuc-AcV5 [SEQ ID NO:2671] supernatant and after extensive washes assayed for NLuc activity essentially as described previously.
Purified T cells were stably transduced with the different CD19-targeted CAR constructs and selected in puromycin. Cells were incubated with FLAG-CD19-ECD-GGSG-NLuc-AcV5 [SEQ ID NO:2671] supernatant and after extensive washes assayed for NLuc activity essentially as described previously.

B1: CD8SP-MPL-161-(vL-vH)-Myc-BBz-T2A-PAC(021015-R07): CAR targeting MPL: 161 scFv, Myc tag, CD8 hinge/TM, 41BB, CD3z, T2A, puromycin resistance (protein)
chain: MALPVTALLLPLALLLHAARPDDIQMTQSSSSFSVSLGDRVTITCMASEDIYIRLAWYQQKPGNAPRLLISAATSLETGVPSRFSGSGSGKDYTLSITSLQTEDVGTYYCQQYWSSPWTFGGGTKLEINGGGGSGGGGSGGGGSDVQLQESGPGLVKPSQSLSLTCTVTGYSITSDYTWNWIRQFPGNKLEWMGYITYSGSTSYNPSLKSRNSITRDTSKNQFFLQLNSVTTEDTATYYCARLGRRYTMDYWGQGTSVTVSSTREQKLISEEDLAKPTTTPAPRPPTPAPTIASQPLSLRPEACRPAAGGAVHTRGLDFACDIYIWAPLAGTCGVLLLSLVITLYCKRGRKKLLYIFKQPFMRPVQTTQEEDGCSCRFPEEEEGGCELRVKFSRSADAPAYQQGQNQLYNELNLGRREEYDVLDKRRGRDPEMGGKPRRKNPQEGLYNELQKDKMAEAYSEIGMKGERRRGKGHDGLYQGLSTATKDTYDALHMQALPPRSSGSGEGRGSLLTCGDVEENPGPHMTEYKPTVRLATRDDVPRAVRTLAAAFADYPATRHTVDPDRHIERVTELQELFLTRVGLDIGKVWVADDGAAVAVWTTPESVEAGAVFAEIGPRMAELSGSRLAAQQQMEGLLAPHRPKEPAWFLATVGVSPDHQGKGLGSAVVLPGVEAAERAGVPAFLETSAPRNLPFYERLGFTVTADVEVPEGPRTWCMTRKPGA
modifications: listed as DNA
notes: CAR targeting MPL: 161 scFv, Myc tag, CD8 hinge/TM, 41BB, CD3z, T2A, puromycin resistance
Turning to B1, in the test with HEL cells, the “secretion of TNFα” value is reported as “increased secretion of TNFα”. Also, the “binding to MPL-GGSG-NLuc AcV5 (NLuc assay)” value in test [1] (T cells expressing the CAR) is reported as “strong binding”. In addition, in test [1] (transiently transfected 293FT cells), the “binding to MPL-ECD-GGSG-NLuc-AcV5 (NLuc assay)” value was “strong binding”. Also, the “binding to FLAG-CD19-ECD-GGSG-NLuc-AcV5 (NLuc assay)” value in test [2] was “very little binding”.
